Usually IC50 stands for the concentration at which inhibition is half-maximal.

Amino acid sequences for entries named in this document (tags omitted).
UniProt O15527, whole entry: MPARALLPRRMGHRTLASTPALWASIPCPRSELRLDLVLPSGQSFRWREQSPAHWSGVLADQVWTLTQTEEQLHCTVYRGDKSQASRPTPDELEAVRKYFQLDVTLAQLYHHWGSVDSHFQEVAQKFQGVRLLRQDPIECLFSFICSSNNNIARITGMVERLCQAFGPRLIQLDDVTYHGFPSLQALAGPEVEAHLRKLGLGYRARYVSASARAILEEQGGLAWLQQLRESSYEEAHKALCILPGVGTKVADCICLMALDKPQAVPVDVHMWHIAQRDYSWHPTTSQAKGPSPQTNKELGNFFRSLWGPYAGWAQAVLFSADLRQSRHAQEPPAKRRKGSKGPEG

The assay concerns the target OGG1 (Homo sapiens, UniProt O15527). Put plainly: In vitro OGG1 activity assay. The class given is biochemical.

For `O=C(Nc1ccc(I)cc1)N1CCC(n2c(=O)[nH]c3cc(Cl)ccc32)CC1` [TH3289], the IC50 reads like this: (IC50 of OGG1 inhibition) 1600 nM; (hOGG1 IC50 (nM)) 1620 nM.

The values are drawn from publication PMC7762994 (Viruses, 2020).
